# Biological target: T1, CD40 (Mus musculus, UniProt P27512)
# Chains of the proteins cited; added tags and fusions are not shown. Residues count along the entry.
# UniProt P27512, 20-289: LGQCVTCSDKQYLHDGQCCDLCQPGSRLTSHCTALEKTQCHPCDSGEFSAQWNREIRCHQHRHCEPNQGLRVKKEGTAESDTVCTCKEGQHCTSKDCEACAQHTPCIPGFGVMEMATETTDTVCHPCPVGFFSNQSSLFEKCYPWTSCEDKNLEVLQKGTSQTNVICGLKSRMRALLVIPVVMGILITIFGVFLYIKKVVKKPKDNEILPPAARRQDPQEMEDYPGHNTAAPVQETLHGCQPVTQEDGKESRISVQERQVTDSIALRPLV
# T1 construct: endogenous in cells
# Assay: Cross-priming of E1B-specific CTLs in mice immunized with Ad5E1-BALB/c MECs, CD40 activation replacing CD4+ T help
# Assay type: in vivo
# Conditions: CD4-depleted mice after immunization; LPS 50 μg intravenous; IL-2 1×10^5 units in IFA subcutaneous (not shown)
# Experimental: Splenocytes from normal (a) or CD4-depleted B6 (b) mice immunized with Ad5EI-BALB/c MECs were tested at various effector/target ratios for lysis of syngeneic MEC target cells loaded with the E1B192-200 peptide (solid lines), which is derived from human adenovirus and has the sequence […] (SEQ ID NO:1)or a D^d-restricted control peptide HPV-16 E749-57 (dashed lines). Each line represents one mouse. Data shown represent one experiment of three performed with similar results.
# Splenocytes from CD4-depleted (a, b) or classII-deficient I-Ab-knockout (KO) (c,d) B6 mice were immunized with Ad5E1-BALB/c MECs and treated with either the CD40-activating antibody (Ab) FGK45 (a, c) or an isotype control antibody (b, d). These splenocytes were tested for E1B-specific CTL activity on syngeneic MEC target cells loaded with either the E1B192-200 peptide (solid lines) or the HPV-16 E749-57 control peptide (dashed lines). Each line represents a single mouse. Data depicted are from two independent experiments. E/T ratio, effector/target ratio. […]
# To investigate whether signalling through CD40 can replace CD4^+ helper T cells in CTL priming, mice were depleted of CD4^+ T cells in vivo before immunization with Ad5E1BALB/c MECs. […] Priming of E1B-specific CTLs was not detected in naive mice treated with FGK45 alone (not shown). […]
substance,measurement,value
"IL-2: IL-2, cytokine given in incomplete Freund adjuvant",E1B-specific CTL activity / CTL priming,neither LPS or IL-2 treatment resulted in detectable CTL priming
